Data reported in ChEMBL document CHEMBL1914282 (J Med Chem, 2011).
The source made the active and inactive calls. The rule behind the calls is not given here.

By UniProt entry, the sequences of proteins in these tests, tags left out. Where a name states a change or a piece, a line headed by the entry shows the natural chain unless it says otherwise.
UniProt Q9HC97: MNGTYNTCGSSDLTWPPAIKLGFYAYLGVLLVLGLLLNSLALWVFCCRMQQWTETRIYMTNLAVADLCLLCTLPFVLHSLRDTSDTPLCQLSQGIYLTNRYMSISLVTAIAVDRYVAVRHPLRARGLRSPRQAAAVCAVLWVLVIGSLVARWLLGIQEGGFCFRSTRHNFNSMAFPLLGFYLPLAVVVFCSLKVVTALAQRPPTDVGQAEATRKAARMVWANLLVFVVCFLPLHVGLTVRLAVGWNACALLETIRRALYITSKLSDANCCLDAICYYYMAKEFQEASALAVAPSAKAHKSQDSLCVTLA

Legend:
Format in all cases: functional, cell-based
[1] = target: T1, G-protein coupled receptor 35 (Homo sapiens, UniProt Q9HC97); assay: Agonist activity at GPR35 in human HT-29 cells after 1 hr by dynamic mass redistribution assay in presence of 64 uM GPR35 antagonist SPB05142
[2] = target: T1, G-protein coupled receptor 35; assay: Agonist activity at GPR35 in human HT-29 cells after 1 hr by dynamic mass redistribution assay in presence of GPR35 antagonist SPB05142
[3] = target: T1, G-protein coupled receptor 35; assay: Agonist activity at GPR35 in human U20S cells expressing beta-lactamase and GPR35-GA14-VP16 transcription factor fusion protein assessed as transcriptional activation after 5 hrs by tango beta-arrestin translocation reporter assay relative to zaprinast; settings: U2OS
Method in brief: (§1)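 Tango GPR35-bla U2OS cells, which express GPR35–TEV site–Gal4-VP16 and β-arrestin/TEV protease, seeded at 10000 cells/well and cultured overnight. Ligand stimulation for 5 h at 37 °C/5% CO2, then 2 h with LiveBLAzer FRET B/G substrate. Coumarin:fluorescein ratio read as reporter response, doses up to 128 μM, n = 4.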

[4] = target: T1, G-protein coupled receptor 35; assay: Agonist activity at GPR35 in human HT-29 cells after 1 hr by dynamic mass redistribution assay relative to zaprinast; design: concentration or dose not given beside the values
Method in brief: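 HT-29 monolayer grown overnight on resonant waveguide grating biosensor plates. Cells washed twice, held in HBSS (20 mM Hepes, pH 7.1) for 1 h at 26 °C, then a 2 min baseline taken before compound addition. Response recorded as resonant wavelength shift (pm) over 1 h. […] Compounds diluted from 10 mM DMSO stocks.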

[5] = target: T1, G-protein coupled receptor 35; assay: Agonist activity at GPR35 in human U20S cells expressing beta-lactamase and GPR35-GA14-VP16 transcription factor fusion protein assessed as transcriptional activation up to 128 uM after 5 hrs by tango beta-arrestin translocation reporter assay; settings: U2OS; method in brief: as §1

| Activity [1] | Activity [2] | Activity [3] | Activity [4] | Activity [5] | SMILES |
| --- | --- | --- | --- | --- | --- |
| inactive | inactive | inactive | 100% | inactive | CCCCc1ccc(C2(C)OC(=C(C#N)C#N)C(C#N)=C2C)cc1 (stereo not drawn) |
| inactive | inactive | inactive | 81% | inactive | CCCCCCCCCCCCCCCc1c(C(=O)O)sc2c(Br)csc12 |
| inactive | inactive | inactive | 84% | inactive | CC1=C(C#N)C(=C(C#N)C#N)OC1(C)c1c(F)c(F)c(F)c(F)c1F (stereo not drawn) |
| inactive | inactive | inactive | inactive | inactive | CCOC(=O)c1sc2c(Br)csc2c1C |
| Active | Active | inactive | 99% | inactive | CC1=C(C#N)C(=C(C#N)C#N)OC1(C)c1ccc(F)cc1F (stereo not drawn) |
| inactive | inactive | inactive | – | – | O=C(O)c1cc2sccc2s1 |
